Reference: patent US20230321106A1, “USE OF TOPICAL BRAF INHIBITOR COMPOSITIONS FOR TREATMENT OF EPIDERMAL GROWTH FACTOR RECEPTOR DOWNSTREAM EFFECTORS - INDUCED CUTANEOUS REACTIONS” (Lutris Pharma Ltd., priority 2020, published 2023)

Test system: phosphorylated ERK1/2 (MAPK pathway) in HKGS-activated HEKa cells
Test: Reversal of EGFR inhibitor-mediated pERK inhibition in HKGS-activated HEKa cells, Western blot
Type: cell-based, human
Settings: HKGS plus cetuximab 50 μg/mL, two hours
Description: Primary HEKa, isolated from adult skin of a single donor and cryopreserved at the end of primary culture (Gibco catalog number C0055C, Thermo Fisher Scientific, Waltham, MA), were cultured in T25 flasks at 37° C., 5% CO2 in growth medium (Epilife™ CF Kit, Gibco) supplemented with 60 μM calcium (Gibco) and HKGS (Gibco). After at least three passages, cells were harvested with trypsin when flask reached 70-80% confluence, and seeded in 10 cm culture dishes (250,000 cells/dish) in 9 ml of growth medium overnight. To analyze the effect of HKGS or a BRAF inhibitor on pERK, cells were starved for 2.5 hours in 5 mL of starvation medium without HKGS, and then individual plates were incubated for two hours with DMSO 0.1%, HKGS, vemurafenib 0.3 μM (0.146 μg/mL), or LUT014 0.3 μM (0.158 μg/mL). To analyze the effects of LUT014 to re-activate pERK in HKGS-activated HEKa cells cultured in an EGFR inhibitor, cells were seeded in 60 mm dishes (120,000 cells/dish) in 4 ml growth medium. […] The signals of phosphorylated ERK1/2 and total ERK2 were quantified using ImageJ software and the phosphorylated ERK1/2/total ERK2 ratio was calculated. For the quantification, equal sized rectangles were drawn around the bands of the phosphorylated ERK1/2 and the total ERK2 and the pixels in each rectangle were measured.

cetuximab
HKGS stimulation of the MAPK pathway (pERK): partially inhibited
